Reference: US20260184748A1, “COMPOSITIONS COMPRISING OCTADECANEUROPEPTIDES (ODN) AND SYNTHETIC DERIVATIVES THEREOF AND METHODS OF USE FOR MODULATION OF FOOD INTAKE, OBESITY, BODY WEIGHT, NAUSEA, AND EMESIS” (The Trustees of the University of Pennsylvania, priority 2022, published 2026)
“Also recorded” adds a separate entry of the source.

Protein sequences, listed by entry. Tags and fused reporters are not part of them. Lines headed by an entry give the natural chain unless they say otherwise; changes in a name come on top.
UniProt P43116: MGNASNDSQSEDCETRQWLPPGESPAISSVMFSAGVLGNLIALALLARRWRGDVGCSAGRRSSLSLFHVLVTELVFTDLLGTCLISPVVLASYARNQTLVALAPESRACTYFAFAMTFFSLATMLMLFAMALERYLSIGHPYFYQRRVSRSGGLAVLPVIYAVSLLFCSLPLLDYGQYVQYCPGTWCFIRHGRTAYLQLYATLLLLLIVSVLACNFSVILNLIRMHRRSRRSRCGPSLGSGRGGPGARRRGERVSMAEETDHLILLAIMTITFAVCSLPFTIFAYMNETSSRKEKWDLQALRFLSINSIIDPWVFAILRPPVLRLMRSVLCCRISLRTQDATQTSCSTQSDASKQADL
UniProt P47900: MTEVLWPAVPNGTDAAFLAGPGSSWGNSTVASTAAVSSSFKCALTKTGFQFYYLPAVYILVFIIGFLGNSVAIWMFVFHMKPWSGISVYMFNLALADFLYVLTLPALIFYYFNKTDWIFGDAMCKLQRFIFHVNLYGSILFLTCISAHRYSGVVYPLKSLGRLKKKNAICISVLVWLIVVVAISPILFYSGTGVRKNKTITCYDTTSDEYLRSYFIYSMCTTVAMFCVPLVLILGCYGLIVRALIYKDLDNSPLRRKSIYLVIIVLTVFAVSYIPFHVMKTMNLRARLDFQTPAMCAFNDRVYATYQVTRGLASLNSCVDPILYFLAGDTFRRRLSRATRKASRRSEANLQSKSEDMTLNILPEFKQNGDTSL

Assays:
PTGER2 = PTGER2 (Homo sapiens, UniProt P43116); test: Arrestin agonist mode; type: cell-based; details: read-out: RC50 (the source's name)
[1] = Kaolin intake (pica) in rats; type: in vivo, rat; details: 4th ventricle injection
P2RY1 = P2RY1 (Homo sapiens, UniProt P47900); test: Arrestin agonist mode; type: cell-based; details: read-out: RC50 (the source's name)

## CCCCC[C@H](O)/C=C/[C@H]1[C@H](O)CC(=O)[C@@H]1C/C=C\CCCC(=O)O [Prostaglandin E2]
PTGER2
  EC50: 687 nM

## exendin-4 [Ex-4]
[1]; HFD-maintained rats
  kaolin intake: increased kaolin intake
[1]; chow-maintained rats
  kaolin intake: increased kaolin consumption in chow-maintained rats relative to controls; also recorded: increased kaolin intake

## CSc1nc(N)c2ncn([C@@H]3O[C@H](COP(=O)(O)OP(=O)(O)O)[C@@H](O)[C@H]3O)c2n1
P2RY1
  EC50: 20.4 nM
